Structure (SMILES)	pKa
NCCF	9
C1CN1	8
